Paper PMC6298601 (Biochemical pharmacology, 2018)
Counter-ions that a name gives are not always drawn.

By UniProt entry, the sequences of proteins in these tests, tags left out.
UniProt P27338, whole entry: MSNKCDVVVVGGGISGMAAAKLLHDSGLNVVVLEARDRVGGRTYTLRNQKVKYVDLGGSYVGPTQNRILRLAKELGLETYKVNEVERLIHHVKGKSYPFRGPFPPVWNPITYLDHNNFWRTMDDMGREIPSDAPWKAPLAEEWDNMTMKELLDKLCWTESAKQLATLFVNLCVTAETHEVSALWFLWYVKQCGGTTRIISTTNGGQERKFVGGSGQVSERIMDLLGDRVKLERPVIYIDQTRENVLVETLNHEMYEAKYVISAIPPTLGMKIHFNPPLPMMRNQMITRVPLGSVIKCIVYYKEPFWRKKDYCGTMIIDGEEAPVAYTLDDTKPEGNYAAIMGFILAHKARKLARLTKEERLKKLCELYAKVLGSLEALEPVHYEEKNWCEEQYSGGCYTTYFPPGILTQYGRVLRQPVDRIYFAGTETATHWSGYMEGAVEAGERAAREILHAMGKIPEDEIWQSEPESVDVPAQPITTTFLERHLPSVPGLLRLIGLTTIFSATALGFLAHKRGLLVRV

Columns and labels:
[1] = molecular target: T1, recombinant human MAO-B (Homo sapiens, UniProt P27338); format: binding; details: equilibrium dialysis overnight
[2] = molecular target: T1, recombinant human MAO-B; format: biochemical; details: Lineweaver-Burk analysis and dialysis

## NNCCc1ccccc1 [Phenelzine, phenelzine sulfate, reference compound]
[1]
  nature of binding with MAO-B (reversibility): irreversible inhibition/binding
[2]
  MAO-B Type of Inhibition: Mixed / Irreversible
